# In EP4659739A9, “TOPICAL FORMULATION COMPRISING NON-COVALENT KERATIN-ACTIVE AGENT CONJUGATES FOR THERAPEUTIC USE” (Rigi Therapeutics AG, priority 2024, dated 2025):
# Tested on: Chorion-Allantois-Membran
# Test: HET-CAM, preclinical tolerability
# Set-up: species or system Gallus gallus domesticus
# Details: classified by IS
# Experimental: Als Screening hinsichtlich der Hautverträglichkeit der Keratinpartikel wurde dieses in eine halbfeste Formulierung eingearbeitet und an der Chorion-Allantois-Membran von acht- bis neuntägigen Gallus gallus domesticus Embryonen (Rasse: New Hampshire) getestet.
# Die Hautverträglichkeit der Keratinpartikel wurde an der Chorion-Allantois-Membran von acht- bis neuntägigen Hühnerembryonen getestet. Befruchtete Hühnereier wurden hierfür acht bis neun Tage lang bei 37°C und 55 % Luftfeuchtigkeit bebrütet. Alle 12 Stunden wurden die Eier gewendet, ausgenommen die letzten 24 Stunden vor Versuchsbeginn. Die Öffnung der Eier wurde an den nach oben gerichteten Eierpolen durchgeführt, wofür die Eierschalen kreisrund (Ø 1,5 cm) geöffnet wurden. Nach dem Abnehmen der Eischalen wurden die Eihäute mit einer 37°C warmen 0,9%-igen NaCl-Lösung befeuchtet. Anschließend wurden unter der Sterilbank die äußeren Eihäute mittels Schere und Pinzette entfernt und die Chorion-Allantois-Membranen freigelegt. Etwa 10-30 % der präparierten Eier wurden für die Untersuchungen nicht verwendet, da sie unbefruchtet waren. Die halbfeste Keratinpartikel-haltige Formulierung konnte nun an den gut ausgebildeten und unbeschädigten Blutgefäßen der Chorion-Allantois-Membranen aufgetragen und getestet werden. Das Testpräparat wurde an insgesamt sechs Eiern getestet, maximal 30 Minuten nach der Öffnung der Eier. […]
structure (smiles),measurement,setting,value
"CCCCCCCCCCCCOS(=O)(=O)O [1 % Natriumlaurylsulfat-Lösung, Natriumlaurylsulfat]",Irritatives Potential,,stark
same,Irritatives Potential,listed as 1%ige Natriumlaurylsulfat-Lösung,starkes (IS > 9 = starkes irritatives Potential)
